These results are taken from ChEMBL document CHEMBL5046218, “Novel Dual-Target μ-Opioid Receptor and Dopamine D3 Receptor Ligands as Potential Nonaddictive Pharmacotherapeutics for Pain Management” (J Med Chem, 2021).

Amino acid sequences for entries named in this document (tags omitted).
UniProt P35372, whole entry, looked up: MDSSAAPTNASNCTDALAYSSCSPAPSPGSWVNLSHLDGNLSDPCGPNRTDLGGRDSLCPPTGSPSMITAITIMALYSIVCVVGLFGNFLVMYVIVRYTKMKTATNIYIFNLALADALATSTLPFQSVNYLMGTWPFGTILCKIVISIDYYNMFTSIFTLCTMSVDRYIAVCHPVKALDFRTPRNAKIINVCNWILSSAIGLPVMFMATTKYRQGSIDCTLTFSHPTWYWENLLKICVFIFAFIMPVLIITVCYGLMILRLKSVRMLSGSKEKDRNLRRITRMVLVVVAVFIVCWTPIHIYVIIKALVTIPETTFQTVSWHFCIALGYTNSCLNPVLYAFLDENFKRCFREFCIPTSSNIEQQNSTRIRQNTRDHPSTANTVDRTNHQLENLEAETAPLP

In the test the target is Mu-type opioid receptor (Homo sapiens, UniProt P35372). Particulars: hek293.

In turn, `CCC(=O)C(CCN(C)C)(c1ccccc1)c1ccccc1` [NORMETHADONE] displayed a Ki of 0.0359 µM.
